{"source": "patent US7498161B2", "about": "(priority 2003, dated 2009)", "origin": "cited, not measured here", "system": "nitroreductase-expressing V79 cells", "conditions": "cited from earlier work", "data": [{"substance": "acyclic 4-nitrobenzyl phosphoramide mustard", "values": [{"measurement": "selective cytotoxicity toward nitroreductase-expressing V79 cells", "result": "167,500 ×"}, {"measurement": "IC50", "setting": "nitroreductase-expressing V79 cells", "result": 0.4, "unit": "nM"}, {"measurement": "more active than CB1954", "setting": "relative to CB1954", "result": "about 100 ×"}, {"measurement": "more selective than CB1954", "setting": "relative to CB1954", "result": 27, "unit": "×"}]}]}
